These are literature values, as cited in article PMC7238188, “Recombinant Peptide Production Platform Coupled with Site-Specific Albumin Conjugation Enables a Convenient Production of Long-Acting Therapeutic Peptide” (Pharmaceutics, 2020).

The conditions of the series: in the human body; cited from earlier work. The text has this:
As alternatives to PEGylation, several strategies were developed. First, in order to increase hydrodynamic volumes, therapeutic peptides/proteins were fused to recombinant PEG mimetics such as XTEN and PAS sequences or conjugated to carbohydrates such as hydroxyethyl starch and polysialic acid. Second, in order to evade intracellular degradation via neonatal Fc receptor (FcRn)-mediated recycling, Fc-domain or albumin was fused/conjugated to therapeutic peptides/proteins. Besides, conjugation of fatty acid, an albumin ligand, was also an effective way to extend the serum half-life o ...

For the substance human serum albumin [HSA], the half-life entry was “up to 3 weeks”.
